Test results: article PMC6357742, “Porphyromonas gingivalis in Alzheimer’s disease brains: Evidence for disease causation and treatment with small-molecule inhibitors” (Science Advances, 2019)

Legend:
Kgp (lysine gingipain) = Kgp (lysine gingipain) (Porphyromonas gingivalis, UniProt B2RLK2); test: biochemical; set-up: species or system P. gingivalis
Kgp = Kgp (Porphyromonas gingivalis, UniProt B2RLK2); test: biochemical; set-up: species or system P. gingivalis

NCCCC[C@H](NC(=O)C1CCCC1)C(=O)COc1c(F)ccc(F)c1F [COR388]
IC50 (Kgp (lysine gingipain)): ≤ 0.05 nM
Ki (Kgp): < 0.01 nM
inhibition constant on Kgp (in words) (Kgp): picomolar
